{"sequences": {"note": "Amino acid sequences for entries named in this document (tags omitted).", "UniProt P61169, whole entry": "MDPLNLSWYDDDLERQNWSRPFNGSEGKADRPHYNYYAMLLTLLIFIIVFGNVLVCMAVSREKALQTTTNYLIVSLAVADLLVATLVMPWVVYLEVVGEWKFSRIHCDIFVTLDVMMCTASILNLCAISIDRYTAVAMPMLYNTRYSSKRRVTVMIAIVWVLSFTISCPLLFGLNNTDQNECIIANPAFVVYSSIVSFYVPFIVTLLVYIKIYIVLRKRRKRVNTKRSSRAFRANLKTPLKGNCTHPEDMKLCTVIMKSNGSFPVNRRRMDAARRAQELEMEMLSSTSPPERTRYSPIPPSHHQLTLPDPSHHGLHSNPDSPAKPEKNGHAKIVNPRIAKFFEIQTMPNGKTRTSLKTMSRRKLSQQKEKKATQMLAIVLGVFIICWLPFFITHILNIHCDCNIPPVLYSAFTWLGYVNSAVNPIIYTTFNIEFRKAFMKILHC"}, "source": "ChEMBL document CHEMBL1155098", "about": "“Synthesis and binding studies of 2-O- and 11-O-substituted N-alkylnoraporphines” (Bioorg Med Chem Lett, 2008)", "key": {"Rattus norvegicus": {"species_on_record": "Rattus norvegicus", "experiment": "Selectivity ratio of […] in rat corpus striatum", "type": "tissue-based"}, "D(2) dopamine receptor": {"target": "D(2) dopamine receptor (Rattus norvegicus, UniProt P61169)", "experiment": "Displacement of [3H]neomonapride from dopamine D2 receptor in rat corpus striatum"}}, "data": [{"smiles": "CCCN1CCc2cc(OC)cc3c2[C@H]1Cc1ccccc1-3", "values": [{"measurement": "Ratio", "setting": "Rattus norvegicus", "value": "> 43"}, {"measurement": "Ki", "setting": "D(2) dopamine receptor", "value": 230, "unit": "nM"}]}, {"smiles": "CCCOc1cccc2c1-c1cc(O)cc3c1[C@@H](C2)N(C)CC3", "values": [{"measurement": "Ratio", "setting": "Rattus norvegicus", "value": 7.8}, {"measurement": "Ki", "setting": "D(2) dopamine receptor", "value": 230, "unit": "nM"}]}]}
